Laboratory results taken from patent US10124022B2, “Compositions and methods for enhancing the effectiveness of systemic, HIPEC, IP, and related cancer treatments” (ChemoTherapeutics, LLC, priority 2010, dated 2018).

Tested on: HCT-116 cells
Experiment: MTS cell viability assay, drugs ± one-hour hyperthermia, cytotoxicity measured after three days (Studies 1-6);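 further: Drug-treated HCT-116 cells held one hour at 42 °C (hyperthermia) or 37 °C, then cultured at 37 °C, viability read by MTS in triplicate wells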
Conditions: 20 μM Selenite, 150 μM Quercetin as named

SMILES | % cell survival (Study 3, 2.5 μM Cisplatin, alone or with 1.25 mM Vitamin C, 37° C.) [%] | % cell survival (Study 3, 2.5 μM Cisplatin, alone or with 1.25 mM Vitamin C, 42° C. 1 hr) [%] | % cell survival (Study 3, 10 μM Cisplatin, alone or with 1.25 mM Vitamin C, 37° C.) [%] | % cell survival (Study 3, 10 μM Cisplatin, alone or with 1.25 mM Vitamin C, 42° C. 1 hr) [%] | % cell survival (Study 3, no chemotherapeutic, 1.25 mM Vitamin C, 37° C.) [%] | % cell survival (Study 3, no chemotherapeutic, 1.25 mM Vitamin C, 42° C. 1 hr) [%]
N.N.[Cl][Pt][Cl] [Cisplatin, reference compound] | 95.2 | 82.7 | 41.2 | 29.9 |  | 
O=c1c(O)c(-c2ccc(O)c(O)c2)oc2cc(O)cc(O)c12 [Quercetin] |  |  |  |  | 128 | 107
